System: Nc1ncnc2c1ncn2[C@@H]1O[C@H](COP(=O)(O)OP(=O)(O)OP(=O)(O)O)[C@@H](O)[C@H]1O
Assay: purified protein
Conditions: apparent, peptide co-substrate CylLS 100 μM (not saturating), 1 μM CylM, 20 mM MgCl2, 2 mM DTT, 50 mM HEPES pH 7.5, 25 °C

Q: Which Km does the source give for CylM (Enterococcus faecalis) here?
A: 99 ± 6 µM

Q: What about the kcat of the same substance?
A: 0.0683 ± 0.0017 s⁻¹

— paper PMC4550811
